The source of these data is patent US20240300900A1, “HYDROPHILIC AZADIBENZOCYCLOOCTYNE DERIVATIVES AND METAL-FREE CLICK REACTIONS WITH THESE HYDROPHILIC AZADIBENZOCYCLOOCTYNE DERIVATIVES” (Roche Diagnostics Operations, Inc., priority 2021, published 2024).

A short description of data set [1]: Hydrophobicity indicated by reverse phase HPLC (YMC-Triart C18). The conditions noted are these: YMC-Triart C18, 0-100% MeCN in H2O, 0.1% TFA in 25 min; later retention = more hydrophobic. It is filed as physicochemical. The text has this: The other way round, an earlier retention corresponded to higher hydrophilie.
Data set [2] is described as follows: Solubility experiments: successive mixing with water, visual inspection. The class given is physicochemical. The note with it: sonicated 10 s. The text has this:
If solid compound was still visible, this was considered as not dissolved. If no solid compound was visible, this was considered as dissolved.

Turning to `O=C(O)CCCNC(=O)CCCC(=O)N1Cc2cc(OCCS(=O)(=O)O)ccc2C#Cc2ccc(OCCS(=O)(=O)O)cc21` [Compound 10], the “Retention Time” value in data set [1] was found to be 9.45 min.

In the case of `O=C(CCCC(=O)N1Cc2cc(OCCS(=O)(=O)O)ccc2C#Cc2ccc(OCCS(=O)(=O)O)cc21)NCCCC(=O)ON1C(=O)CCC1=O` [Compound 11], the “dissolved in water (visual inspection)” value in data set [2] (theoretical concentration 0.6 mM), in data set [2] (theoretical concentration 6.0 mM), in data set [2] (theoretical concentration 12.4 mM), in data set [2] (theoretical concentration 16.5 mM) and in data set [2] (theoretical concentration 515 mM) was “yes” each time.
